Test results published in publication PMC12671102 (Drug Design, Development and Therapy, 2025).

Protein sequences, listed by entry. Tags and fused reporters are not part of them. Lines headed by an entry give the natural chain unless they say otherwise; changes in a name come on top.
UniProt Q96S37: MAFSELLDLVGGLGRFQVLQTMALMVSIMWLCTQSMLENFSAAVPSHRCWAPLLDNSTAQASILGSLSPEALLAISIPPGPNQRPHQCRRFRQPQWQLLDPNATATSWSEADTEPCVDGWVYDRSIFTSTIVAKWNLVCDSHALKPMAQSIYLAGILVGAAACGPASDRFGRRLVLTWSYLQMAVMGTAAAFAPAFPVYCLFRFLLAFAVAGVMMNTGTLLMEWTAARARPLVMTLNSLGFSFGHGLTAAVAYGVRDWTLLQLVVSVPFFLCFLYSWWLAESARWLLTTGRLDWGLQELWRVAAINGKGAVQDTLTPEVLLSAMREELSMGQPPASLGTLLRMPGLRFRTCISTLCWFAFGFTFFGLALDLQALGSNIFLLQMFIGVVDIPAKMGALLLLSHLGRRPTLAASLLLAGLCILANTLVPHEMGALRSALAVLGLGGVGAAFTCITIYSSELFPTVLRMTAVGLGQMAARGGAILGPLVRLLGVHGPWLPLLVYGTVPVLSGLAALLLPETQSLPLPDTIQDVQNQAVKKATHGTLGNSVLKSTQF

Molecular target: human URAT1 (Homo sapiens, UniProt Q96S37)
Assay type: cell-based

IC50: 24.4 µM
Compound: O=C(O)CSc1nnc(Br)n1-c1ccc(C2CC2)c2ccccc12 [lesinurad]
